Earlier results as cited in patent publication US20240246966A1, “NEW PYRAZOLO[1,5-a] PYRIMIDINE DERIVATIVES AS SIGMA LIGANDS” (ACONDICIONAMIENTO TARRASENSE, priority 2021, published 2024).

Sequences of proteins named here, by UniProt entry; tags and fusion partners are left off.
UniProt Q99720, whole entry: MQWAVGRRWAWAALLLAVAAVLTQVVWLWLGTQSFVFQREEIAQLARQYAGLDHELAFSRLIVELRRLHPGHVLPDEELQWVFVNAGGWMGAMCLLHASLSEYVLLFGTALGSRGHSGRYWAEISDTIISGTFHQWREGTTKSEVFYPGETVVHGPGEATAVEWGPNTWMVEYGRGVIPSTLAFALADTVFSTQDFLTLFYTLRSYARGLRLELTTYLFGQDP

Target: sigma-1 (σ1) site (Homo sapiens, UniProt Q99720)
Conditions: background statement; cited from earlier work

(+)-SKF-10047
affinity for the sigma-1 (σ1) site: nanomolar affinity
